One compound from patent publication US9708325B2, “Sulfonimidoylpurinone compounds and derivatives for the treatment and prophylaxis of virus infection” (Hoffmann-La Roche Inc., priority 2015, dated 2017) can be followed below.

By UniProt entry, the sequences of proteins in these tests, tags left out. Residues count along the entry.
UniProt Q9NYK1, 27-1049: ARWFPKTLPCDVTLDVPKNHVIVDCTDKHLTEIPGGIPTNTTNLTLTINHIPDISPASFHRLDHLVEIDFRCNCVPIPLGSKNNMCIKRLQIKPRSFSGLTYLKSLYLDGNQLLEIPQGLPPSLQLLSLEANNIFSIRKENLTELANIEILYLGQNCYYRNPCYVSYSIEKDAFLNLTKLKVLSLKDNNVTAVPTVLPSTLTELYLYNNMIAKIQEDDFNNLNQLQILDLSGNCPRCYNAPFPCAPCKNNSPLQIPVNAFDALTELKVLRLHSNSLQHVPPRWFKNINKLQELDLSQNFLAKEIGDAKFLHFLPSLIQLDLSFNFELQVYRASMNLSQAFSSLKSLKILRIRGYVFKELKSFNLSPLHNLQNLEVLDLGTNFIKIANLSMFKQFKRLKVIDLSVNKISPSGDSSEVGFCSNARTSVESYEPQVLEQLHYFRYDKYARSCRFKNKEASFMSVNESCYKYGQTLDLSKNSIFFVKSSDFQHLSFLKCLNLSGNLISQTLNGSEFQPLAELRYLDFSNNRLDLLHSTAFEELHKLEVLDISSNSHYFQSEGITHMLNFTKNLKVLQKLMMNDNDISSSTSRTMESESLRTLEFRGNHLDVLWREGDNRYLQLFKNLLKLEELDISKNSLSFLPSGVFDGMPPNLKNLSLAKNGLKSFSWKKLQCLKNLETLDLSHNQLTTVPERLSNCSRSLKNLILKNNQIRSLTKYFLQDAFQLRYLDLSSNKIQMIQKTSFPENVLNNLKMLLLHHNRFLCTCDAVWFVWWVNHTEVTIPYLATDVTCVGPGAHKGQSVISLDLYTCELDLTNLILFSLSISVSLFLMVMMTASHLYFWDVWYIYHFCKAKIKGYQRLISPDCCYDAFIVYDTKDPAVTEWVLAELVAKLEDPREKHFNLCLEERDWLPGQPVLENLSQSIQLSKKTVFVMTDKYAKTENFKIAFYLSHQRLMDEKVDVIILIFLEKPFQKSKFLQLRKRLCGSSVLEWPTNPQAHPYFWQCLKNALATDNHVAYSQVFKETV

Usually EC50 stands for the concentration at which the effect is half-maximal. Read a low EC50 as a more potent agent.

This assay deals with human TLR7 (Homo sapiens (Human), UniProt Q9NYK1). Description: HEK-Blue-hTLR7 cells assay (SEAP reporter). In kind it is cell-based. To be noted: HEK-Blue-hTLR7 (EC50 (μM)), 20 hrs. Here is the method:
A stable HEK-Blue-hTLR7 cell line was purchased from InvivoGen (Cat.#: hkb-htlr7, San Diego, Calif., USA). These cells were designed for studying the stimulation of human TLR7 by monitoring the activation of NF-κB. […] Therefore the reporter expression was regulated by the NF-κB promoter upon stimulation of human TLR7 for 20 hrs. The cell culture supernatant SEAP reporter activity was determined using QUANTI-Blue™ kit (Cat.#: rep-qb1, Invivogen, San Diego, Ca, USA) at a wavelength of 640 nm, a detection medium that turns purple or blue in the presence of alkaline phosphatase.
HEK-Blue-hTLR7 cells were incubated at a density of 250,000˜450,000 cells/mL in a volume of 180 μL in a 96-well plate in Dulbecco's Modified Eagle's medium (DMEM) containing 4.5 g/L glucose, 50 U/mL penicillin, […], […], 2 mM L-glutamine, 10% (V/V) heat-inactivated fetal bovine serum for 24 hrs. Then the HEK-Blue-hTLR-7 cells were incubated with addition of 20 μL test compound in a serial dilution in the presence of final DMSO at 1% and perform incubation under 37° C. in a CO2 incubator for 20 hrs. Then 20 μL of the supernatant from each well was incubated with 180 μL Quanti-blue substrate solution at 37° C. for 2 hrs and the absorbance was read at 620˜655 nm using a spectrophotometer. […]

The compound `COCCS(=N)(=O)c1nc(N)c2[nH]c(=O)n(Cc3ccccc3)c2n1` (single isomer, unassigned) [Example 3-A, 6-Amino-9-benzyl-2-(2-methoxyethylsulfonimidoyl)-7H-purin-8-one] returned an EC50 of 0.27 µM.
